Only a part is listed here, and it is no random draw. Active and inactive are the calls of the source. Calls follow the shape of the dose curve; as a rule, active = well fitted activation curve with a large enough effect; inconclusive = small, poorly fitted or top-dose-only effect, or another doubt; inactive = no such curve, though single readings can be large or run the other way.

Sequences of proteins named here, by UniProt entry; tags and fusion partners are left off.
UniProt Q03431, whole entry: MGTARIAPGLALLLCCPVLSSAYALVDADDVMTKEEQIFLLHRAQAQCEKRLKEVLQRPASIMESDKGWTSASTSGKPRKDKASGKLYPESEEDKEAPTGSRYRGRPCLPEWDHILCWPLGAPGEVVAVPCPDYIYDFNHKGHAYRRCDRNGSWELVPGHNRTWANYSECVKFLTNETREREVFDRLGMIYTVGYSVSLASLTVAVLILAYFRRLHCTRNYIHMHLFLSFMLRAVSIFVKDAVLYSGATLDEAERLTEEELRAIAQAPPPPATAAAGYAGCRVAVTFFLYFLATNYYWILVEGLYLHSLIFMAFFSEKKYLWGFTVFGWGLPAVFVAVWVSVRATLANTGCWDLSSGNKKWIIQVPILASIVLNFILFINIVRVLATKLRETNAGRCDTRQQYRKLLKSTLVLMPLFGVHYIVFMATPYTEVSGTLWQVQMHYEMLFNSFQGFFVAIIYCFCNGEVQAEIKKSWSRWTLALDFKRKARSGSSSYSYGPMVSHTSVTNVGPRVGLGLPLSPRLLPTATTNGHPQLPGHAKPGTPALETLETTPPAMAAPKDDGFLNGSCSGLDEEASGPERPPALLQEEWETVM

This is an account of results in PubChem BioAssay AID743266 (National Center for Advancing Translational Sciences (NCATS), 2014).

In this assay the target is Parathyroid hormone/parathyroid hormone-related peptide receptor (Homo sapiens) (UniProt Q03431). Put plainly: qHTS for PTHR1 Agonists: Primary Screen. Also: nearly all actives have a fitted effect of over 55% in size. As to conditions: HEK293 GP2 PTHR1 cells, GloSensor cAMP luminescence, 1 h; activation: at 115 µM (top of the series) unless noted.
Turning to `O=[N+]([O-])c1cc([N+](=O)[O-])c(Nc2cccnc2)c([N+](=O)[O-])c1`, the activation entry is “inactive”.

Regarding `Cc1cccc(C)c1OP(C)(N)=O` (centres undefined), the activation was inactive: 11.2%.

For `CC(C)(C)c1ccc(OP(C)(=O)Nc2ccc(SC(F)(F)F)cc2)cc1` (centres undefined), the activation is inactive: -11.4%.

On to `O=[N+]([O-])c1ccc2c(c1)C=Nc1ccccc1O2`, for which the activation was inactive: -25.1%.

Consider `CCOC(=O)c1ccc(NP(C)(=O)Oc2ccccc2)cc1` (centres undefined), for which the activation entry was “inactive”.

As to `Cc1ccc(NP(C)(=O)Oc2ccccc2)c(C)c1` (centres undefined), the activation is inactive: -34.3%.

`COc1ccccc1OP(C)(=O)Nc1ccc(C)cc1` (centres undefined): the outcome was “inactive [at 57.5 µM]”.

Consider `COc1ccc(OP(C)(=O)Nc2cccc(F)c2)cc1` (centres undefined), for which the activation entry was “inactive”.

For the molecule `COc1ccccc1OP(C)(=O)Nc1cc(Cl)ccc1C` (centres undefined), the activation is inactive: -14%.

Consider `Cc1cc(C)cc(OP(C)(N)=O)c1` (centres undefined), for which the activation entry is “inactive”.

As for `CCN(CC)CCCOC(=O)C(O)(c1ccccc1)c1ccccc1`, the activation is inactive: -15.7%.

As for `COc1ccccc1-c1ccccn1.O=[N+]([O-])c1cc([N+](=O)[O-])c(O)c([N+](=O)[O-])c1`, the activation result is “inactive”.

As to `CP(=O)(Oc1ccccc1)OC(c1ccccc1)C(F)(F)F` (centres undefined), the activation result was “inactive”.

For `Cc1cccc(C)c1OP(C)(=O)Nc1ccc(SC(F)(F)F)cc1` (centres undefined), the activation is inactive: -7.46%.

Take `CP(=O)(Nc1ccc(SC(F)(F)F)cc1)Oc1ccc(Cl)cc1` (centres undefined): the activation was inactive: -55.1%.

As to `Cc1cc(C)cc(OP(C)(=O)Nc2ccc(SC(F)(F)F)cc2)c1` (centres undefined), the activation is inactive: -27.4%.

On to `CCc1ccc(OP(C)(=O)N2CCN(c3ccc([N+](=O)[O-])cc3)CC2)cc1` (centres undefined), for which the activation is inactive: -36.8%.

`CP(=O)(NC(=O)Nc1ccccc1)Oc1ccccc1` (centres undefined): the activation is inactive: -8.27% [at 57.5 µM].

As to `CCOP(C)(=S)SCC(=O)NC(C)C(=O)O` (centres undefined), the activation is inactive: -13.5%.

Turning to `CCOC(=O)c1ccc(NP(C)(=O)Oc2ccc(OC)cc2)cc1` (centres undefined), the activation result was “inactive”.

As for `O=[N+]([O-])c1cc([N+](=O)[O-])c(O)c([N+](=O)[O-])c1.c1ccc(Oc2ccncc2)cc1`, the activation result was “inactive”.

For `CP(=O)(Nc1ccccn1)Oc1ccc(Cl)cc1` (centres undefined), the activation is inactive: -11.5% [at 57.5 µM].

In the case of `CP(=S)(Nn1cnnc1)Oc1ccccc1` (centres undefined), the activation was inactive: -3.6%.

For the molecule `COc1ccccc1OP(C)(=O)Nc1ccccc1` (centres undefined), the activation is inactive: -15.2%.

Regarding `CP(=O)(Nc1ccccc1Br)Oc1ccccc1` (centres undefined), the activation entry is “inactive”.

For the molecule `O=[N+]([O-])c1cc([N+](=O)[O-])c(Nc2nnnn2CCO)c([N+](=O)[O-])c1`, the activation result is “inactive”.

On to `CC1=C2N=C(C=C3N=C(C(C)=C4[N-][C@@](C)([C@@H]5N=C1[C@](C)(CCC(=O)NC[C@@H](C)OP(=O)([O-])O[C@H]1[C@@H](O)[C@@H](n6cnc7cc(C)c(C)cc76)O[C@@H]1CO)[C@H]5CC(N)=O)[C@@](C)(CC(N)=O)[C@@H]4CCC(N)=O)[C@@](C)(CC(N)=O)[C@@H]3CCC(N)=O)C(C)(C)[C@@H]2CCC(N)=O.[C-]#N.[Co+3]`, for which the activation was inactive: 13%.

Take `COc1ccccc1OP(C)(=O)Nc1c(C)cccc1C` (centres undefined): the outcome is “inactive [at 57.5 µM]”.

On to `CN1CCCCC1COC(=O)C1(O)c2ccccc2CCc2ccccc21` (centres undefined), for which the activation was inactive: 12.7%.

As to `CP(=O)(Nc1ccc(SC(F)(F)F)cc1)Oc1ccccc1` (centres undefined), the activation was inactive: -35.6%.

Take `CCCOc1ccc(NP(C)(=O)Oc2ccc(Cl)cc2)cc1` (centres undefined): the activation is inactive: -14.7%.

Turning to `COc1ccc(-c2ccccn2)cc1.O=[N+]([O-])c1cc([N+](=O)[O-])c(O)c([N+](=O)[O-])c1`, the activation is inactive: -21.9%.

As to `O=[N+]([O-])c1cc([N+](=O)[O-])c(-n2nnc3ccccc32)c([N+](=O)[O-])c1`, the activation was inactive: 13%.

Take `CN(Cc1cccnc1)C(=O)COc1ccc(Cl)c(Cl)c1.O=[N+]([O-])c1cc([N+](=O)[O-])c(O)c([N+](=O)[O-])c1`: the activation was inactive: -1.62%.

On to `O=[N+]([O-])c1cc([N+](=O)[O-])c(-c2cnn(-c3ccccc3)c2)c([N+](=O)[O-])c1`, for which the activation was inactive: -23.5%.

As to `Cc1nc2ccc3ccccc3c2s1.O=[N+]([O-])c1cc([N+](=O)[O-])c(O)c([N+](=O)[O-])c1`, the activation was inactive: -8.74% [at 57.5 µM].

As for `COc1ccccc1OP(C)(=O)Nc1cccc(Br)c1` (centres undefined), the activation was inactive: -25.8%.

Regarding `Cc1cc(C)cc(OP(C)(=O)Nc2ccc(C)cc2C)c1` (centres undefined), the outcome was “inactive [at 57.5 µM]”.

For `CCOC(=O)c1ccc(NP(C)(=O)Oc2cc(C)cc(C)c2)cc1` (centres undefined), the activation entry is “inactive”.

As for `CP(=O)(Nc1cccc(Br)c1)Oc1ccccc1` (centres undefined), the activation result is “inactive”.

In the case of `Cc1cc(C)cc(OP(C)(=O)Nc2ccccn2)c1` (centres undefined), the outcome was “inactive [at 57.5 µM]”.

Take `Cc1ccc(C)c(NP(C)(=O)Oc2ccccc2)c1` (centres undefined): the activation was inactive: -22.6%.

Take `CC1=NCCc2c1[nH]c1ccccc21.O=[N+]([O-])c1cc([N+](=O)[O-])c(O)c([N+](=O)[O-])c1`: the activation was inactive: -13.1%.

In the case of `COc1ccc(OP(C)(=O)Nc2ccc(SC(F)(F)F)cc2)cc1` (centres undefined), the activation was inactive: -4.37%.

Take `CCOC(=O)c1ccc(NP(C)(=O)Oc2ccc(F)cc2)cc1` (centres undefined): the activation was inactive: -26.4%.

On to `CCN(CC)CCCOC(=O)C(O)(c1ccccc1)C1CCCCC1` (centres undefined), for which the outcome is “inactive [at 57.5 µM]”.

On to `Cc1c([N+](=O)[O-])cc([N+](=O)[O-])c(Br)c1[N+](=O)[O-]`, for which the activation is inactive: -26.2%.

Consider `CCCCCOc1ccc(NP(C)(=O)Oc2ccc(Cl)cc2Cl)cc1` (centres undefined), for which the activation is inactive: -3.44%.

For `CP(=O)(Nc1ccccc1)Oc1ccc(F)cc1` (centres undefined), the activation is inactive: -0.495% [at 57.5 µM].

With `CC(C)c1ccc(OP(C)(=O)Nc2ccc(SC(F)(F)F)cc2)cc1` (centres undefined), the activation is inactive: -20.5%.

`CP(=O)(Nc1ccccc1F)Oc1ccccc1` (centres undefined): the activation is inactive: -7.83% [at 57.5 µM].

As to `O=C(OCCN1CCN(CCOCc2ccccc2)CC1)C(O)(c1ccccc1)c1ccccc1`, the activation is inactive: -24.8%.

In the case of `CP(=O)(Nc1ccc(SC(F)(F)F)cc1)Oc1ccc(F)cc1` (centres undefined), the activation result is “inactive”.

`CCOP(C)(=S)SCC(=O)NC(C)(CC)C(=O)O` (centres undefined): the activation was inactive: -17.4%.

As for `O=[N+]([O-])c1cc([N+](=O)[O-])c(C(F)(F)F)c([N+](=O)[O-])c1O`, the activation was inactive: -9.85%.

For `Cc1ccccc1NP(C)(=O)Nc1ccccc1C`, the activation result is “inactive”.

Turning to `COc1ccc(OP(C)(=O)Nc2cccc(Br)c2)cc1` (centres undefined), the activation entry was “inactive”.

As for `COc1ccc(NP(C)(=O)Oc2ccccc2OC)cc1` (centres undefined), the activation is inactive: -38.6%.

Regarding `CN(C)CCOC(=O)C(O)(c1ccccc1)C1CCCCC1` (centres undefined), the activation is inactive: -6.04% [at 57.5 µM].

Take `Cc1cc(-c2cccc3ccccc23)c(C)cn1.O=[N+]([O-])c1cc([N+](=O)[O-])c(O)c([N+](=O)[O-])c1`: the activation was inactive: -4.02%.

With `O=[N+]([O-])c1ccc(OP2(=O)COCCO2)cc1` (centres undefined), the activation is inactive: -9.21%.

For `Cc1c(C(c2ccc3c(c2)OCO3)c2c(C)n(C)n(-c3ccccc3)c2=O)c(=O)n(-c2ccccc2)n1C.O=[N+]([O-])c1cc([N+](=O)[O-])c(O)c([N+](=O)[O-])c1`, the activation is inactive: 2.16%.

As to `Nc1ccc2c(ccc3cccnc32)n1.O=[N+]([O-])c1cc([N+](=O)[O-])c(O)c([N+](=O)[O-])c1`, the activation is inactive: -9.94%.

As to `CP(=O)(OC12CC3CC(CC(C3)C1)C2)OC12CC3CC(CC(C3)C1)C2`, the activation was inactive: -23.6%.

On to `CCOC(=O)c1ccc(NP(C)(=O)Oc2ccc(Cl)cc2)cc1` (centres undefined), for which the activation entry is “inactive”.

For the molecule `COc1ccc(OP(C)(=O)Nc2ccc(Br)cc2)cc1` (centres undefined), the activation was inactive: -17.3%.

As to `CCN(CC)CC(O)COC(=O)C(O)(c1ccccc1)C1CCCCC1` (centres undefined), the activation is inactive: -5.43% [at 57.5 µM].

Consider `CCc1ccc(OP(C)(=O)Nc2cccnc2)cc1` (centres undefined), for which the activation was inactive: -7.56%.

In the case of `CP(=O)(Oc1ccccc1)N1CCOC1=O` (centres undefined), the activation was inactive: -1.28% [at 57.5 µM].

On to `O=C(OCCCN1CCCC1)C(O)(c1ccccc1)C1CCCCC1` (centres undefined), for which the activation is inactive: -21.2%.

Consider `COc1ccccc1OP(C)(=O)Nc1c(C)n(C)n(-c2ccccc2)c1=O` (centres undefined), for which the outcome is “inactive [at 57.5 µM]”.

As for `CP(=O)(Nc1ccc(Cl)cc1)Oc1ccc(F)cc1` (centres undefined), the outcome was “inactive [at 57.5 µM]”.

Regarding `CC(C)(C)c1ccc(OP(C)(=O)O)cc1`, the activation was inactive: -14% [at 57.5 µM].

Turning to `COc1ccccc1OP(C)(=O)Nc1ccccc1Br` (centres undefined), the activation is inactive: -31%.

Regarding `CN(C)C(=O)c1c([N+](=O)[O-])cc([N+](=O)[O-])cc1[N+](=O)[O-]`, the activation was inactive: -24.4%.

Consider `COc1ccccc1OP(C)(=O)Nc1ccc(Br)cc1` (centres undefined), for which the activation is inactive: -2.92%.

Take `CN(C)CCOC(=O)C(O)(c1ccccc1)C1CCCC1` (centres undefined): the activation is inactive: -15.7% [at 57.5 µM].

`COc1ccc(OP(C)(=O)Nc2ccccn2)cc1` (centres undefined): the activation is inactive: -8.08%.

`O=[N+]([O-])c1cc([N+](=O)[O-])c(Nc2ccccn2)c([N+](=O)[O-])c1`: the activation was inactive: -23.1%.

As to `Cc1c(NP(C)(=O)Oc2ccc(C(C)C)cc2)c(=O)n(-c2ccccc2)n1C` (centres undefined), the activation result is “inactive”.

Regarding `CCc1ccc(OP(C)(=O)O)cc1`, the outcome is “inactive [at 57.5 µM]”.

On to `COc1ccccc1OP(C)(=O)Nc1ccc(C)cc1C` (centres undefined), for which the activation is inactive: -5.07% [at 57.5 µM].

As for `CP(=O)(Nc1ccccn1)Oc1ccccc1` (centres undefined), the outcome was “inactive [at 57.5 µM]”.

Take `Cc1cc(C)cc(OP(C)(=O)Nc2cccc(C(F)(F)F)c2)c1` (centres undefined): the activation result was “inactive”.

For `COc1ccc(OP(C)(=O)Nc2ccccc2Br)cc1` (centres undefined), the activation entry is “inactive”.

As for `COc1ccccc1OP(C)(=O)Nc1ccc(C)c(C)c1` (centres undefined), the activation is inactive: -13.7% [at 57.5 µM].

Regarding `CP(=O)(OCCOc1ccccc1)OCCOc1ccccc1`, the activation was inactive: -93.6%.

`CP(=O)(Nc1ccc(Cl)cc1Cl)Oc1ccccc1` (centres undefined): the activation is inactive: 14.8%.

With `CCCCCCCCCCCCCCCC1C[N+](C)(C)CCOP(C)(=O)O1` (centres undefined), the activation is inactive: -2.87%.
